The values below come from patent US10112926B2 (priority 2014, dated 2018).

By UniProt entry, the sequences of proteins in these tests, tags left out. Where a name states a change or a piece, a line headed by the entry shows the natural chain unless it says otherwise.
UniProt P42336, whole entry, looked up: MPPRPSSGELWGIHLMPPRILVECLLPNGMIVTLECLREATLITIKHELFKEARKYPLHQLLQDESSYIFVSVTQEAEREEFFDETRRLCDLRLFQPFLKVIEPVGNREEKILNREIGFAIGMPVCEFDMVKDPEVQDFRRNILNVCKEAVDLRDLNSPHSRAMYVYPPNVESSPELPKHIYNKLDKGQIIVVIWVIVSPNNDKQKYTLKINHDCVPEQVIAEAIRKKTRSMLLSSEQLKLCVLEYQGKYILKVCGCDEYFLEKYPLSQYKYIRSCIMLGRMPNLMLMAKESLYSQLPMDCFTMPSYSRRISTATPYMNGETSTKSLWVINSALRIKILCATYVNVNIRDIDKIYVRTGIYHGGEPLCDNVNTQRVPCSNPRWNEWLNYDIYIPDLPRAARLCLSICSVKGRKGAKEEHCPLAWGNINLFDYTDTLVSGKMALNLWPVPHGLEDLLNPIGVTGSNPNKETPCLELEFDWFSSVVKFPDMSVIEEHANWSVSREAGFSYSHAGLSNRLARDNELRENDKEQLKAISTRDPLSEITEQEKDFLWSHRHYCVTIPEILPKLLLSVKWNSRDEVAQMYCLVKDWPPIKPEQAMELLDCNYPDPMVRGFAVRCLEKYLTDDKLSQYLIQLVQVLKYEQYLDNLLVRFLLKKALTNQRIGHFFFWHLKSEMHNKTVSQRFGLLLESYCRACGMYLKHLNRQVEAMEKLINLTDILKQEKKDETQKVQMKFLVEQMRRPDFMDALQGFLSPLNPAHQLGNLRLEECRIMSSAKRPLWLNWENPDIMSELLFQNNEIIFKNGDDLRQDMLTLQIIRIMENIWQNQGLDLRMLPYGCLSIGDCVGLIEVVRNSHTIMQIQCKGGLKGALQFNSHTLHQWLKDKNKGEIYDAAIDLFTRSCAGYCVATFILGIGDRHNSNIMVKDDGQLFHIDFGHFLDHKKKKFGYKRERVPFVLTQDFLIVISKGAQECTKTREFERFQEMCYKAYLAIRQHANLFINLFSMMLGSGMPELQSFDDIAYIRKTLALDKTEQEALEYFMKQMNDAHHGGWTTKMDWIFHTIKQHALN
UniProt P42338: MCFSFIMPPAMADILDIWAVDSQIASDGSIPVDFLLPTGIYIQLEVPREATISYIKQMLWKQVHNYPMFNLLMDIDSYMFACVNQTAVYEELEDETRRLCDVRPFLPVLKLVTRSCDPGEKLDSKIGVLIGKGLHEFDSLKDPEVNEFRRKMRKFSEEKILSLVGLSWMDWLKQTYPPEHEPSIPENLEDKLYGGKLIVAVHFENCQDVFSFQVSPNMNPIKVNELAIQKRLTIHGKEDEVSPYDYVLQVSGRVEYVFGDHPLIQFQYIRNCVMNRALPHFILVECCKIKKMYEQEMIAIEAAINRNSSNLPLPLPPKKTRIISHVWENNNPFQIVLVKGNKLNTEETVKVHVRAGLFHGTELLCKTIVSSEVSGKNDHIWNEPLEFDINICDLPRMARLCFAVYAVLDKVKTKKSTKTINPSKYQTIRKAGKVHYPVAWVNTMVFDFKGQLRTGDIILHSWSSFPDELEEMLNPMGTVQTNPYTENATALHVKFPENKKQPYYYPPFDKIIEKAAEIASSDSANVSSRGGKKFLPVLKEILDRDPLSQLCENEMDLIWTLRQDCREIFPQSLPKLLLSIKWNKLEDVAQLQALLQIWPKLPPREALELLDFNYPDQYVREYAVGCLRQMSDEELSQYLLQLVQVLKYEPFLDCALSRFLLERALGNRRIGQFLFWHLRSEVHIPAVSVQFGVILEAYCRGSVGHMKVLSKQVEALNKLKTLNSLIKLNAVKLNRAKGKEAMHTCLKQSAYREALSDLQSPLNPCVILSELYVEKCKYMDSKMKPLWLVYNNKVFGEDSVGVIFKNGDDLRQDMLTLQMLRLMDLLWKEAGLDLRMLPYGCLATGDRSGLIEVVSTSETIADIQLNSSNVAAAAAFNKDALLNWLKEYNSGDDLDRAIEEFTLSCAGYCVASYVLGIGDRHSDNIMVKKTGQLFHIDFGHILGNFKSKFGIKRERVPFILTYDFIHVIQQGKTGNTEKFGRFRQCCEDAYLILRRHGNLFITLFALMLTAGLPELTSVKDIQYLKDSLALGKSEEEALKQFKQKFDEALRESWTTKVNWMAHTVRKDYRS

One may read the IC50 as the point on the concentration scale where inhibition reaches its midpoint.

In experiment [1] the target is PI 3-kinase alpha (Rat-1 pBABEpuro Myr-HA-hp110 alpha cells) (Homo sapiens (Human), UniProt P42336). The settings on record: read-out: Assay H PI3Kα IC50.
Experiment [2] addresses PI 3-kinase beta (Rat-1 pBABEpuro Myr-HA-hp110 beta cells) (Homo sapiens (Human), UniProt P42338). The settings on record: read-out: Assay I PI3Kβ IC50.

As to “cis-3-(6-amino-5-(2-methylthiazol-5-yl)pyridin-3-yl)-N-(3-hydroxycyclobutyl)methyl)-4-methylbenzenesulfonamide [Example 83a]”, the results for the half-maximal inhibitory concentration (IC50) in experiment [1] and in experiment [2] were 5.1 µM and 7.52 µM, respectively.
